# Assay results as given in patent US20040141914A1, “Cancerous disease modifying antibodies” (priority 2003, published 2004).
# Experiments:
# Assay in all cases: FACS binding to live cells
# Details in all cases: antibody 20 micrograms/mL
# OVCAR-3 = tested on: OVCAR-3
# Procedure: (§1) Cells were prepared for FACS by initially washing the cell monolayer with DPBS (without Ca^++and Mg^++). Cell dissociation buffer (INVITROGEN) was then used to dislodge the cells from their cell culture plates at 37° C. After centrifugation and collection the cells were resuspended in Dulbecco's phosphate buffered saline containing MgCl2, CaCl2 and 25% fetal bovine serum at 4° C. (wash media) and counted, aliquoted to appropriate cell density, spun down to pellet the cells and resuspended in staining media (DPBS containing MgCl2, CaCl2 and 2% fetal bovine serum) at 4° C. in the presence of test antibodies (10A429.3) or control antibodies (isotype control or anti-EGF-R) at 20 micrograms/mL on ice for 30 minutes. Prior to the addition of Alexa Fluor 488-conjugated secondary antibody the cells were washed once with wash media. The Alexa Fluor 488-conjugated antibody in staining media was then added for 20 minutes. The cells were then washed for the final time and resuspended in staining media containing 1 microgram/mL propidium iodide. Flow cytometric acquisition of the cells was assessed by running samples on a FACScan using the CellQuest software (BD Biosciences). The forward (FSC) and side scatter (SSC) of the cells were set by adjusting the voltage and amplitude gains on the FSC and SSC detectors. […] Live cells were acquired by gating for FSC and propidium iodide exclusion.
# (§2) Table 3 tabulated the mean fluorescence intensity fold increase above isotype control and is presented qualitatively as: less than 5 (−); 5 to 50 (+); 50 to 100 (++); above 100 (+++) and in parenthesis, the percentage of cells stained. Representative histograms of 10A429.3 antibodies were compiled for FIG. 1 and evidence the binding characteristics, inclusive of illustrated bimodal peaks in some cases. […] This was consistent with the lack of cytotoxicity to these cell types.
# PC-3 = tested on: PC-3
# Procedure: as §1, §2
# Hs888 Lu = tested on: Hs888 Lu
# Procedure: as §1, §2
# HT-29 = tested on: HT-29
# Procedure: as §1, §2
# SW1116 = tested on: SW1116
# Procedure: as §1, §2
# CCD-27sk = tested on: CCD-27sk
# Procedure: as §1, §2
substance,measurement,setting,value
"anti-EGFR (C225): anti-EGFR antibody C225, IgG1, kappa, Cedarlane; positive control","percentage of cells stained, OVCAR-3",OVCAR-3,90%
same,"percentage of cells stained, PC-3",PC-3,95%
same,"percentage of cells stained, Hs888 Lu",Hs888 Lu,95%
same,"percentage of cells stained, HT-29",HT-29,97%
same,"percentage of cells stained, SW1116",SW1116,43%
same,"percentage of cells stained, CCD-27sk",CCD-27sk,50%
